This experiment has as its target T1, human galectin-1 (Gal-1, full length) (Homo sapiens, UniProt P09382).
T1 construct: Gal-1 is a prototype galectin consisting of a single CRD and was used in full length; 6xHis tag with TEV protease site (N, cleaved yes); made in house; host or cells: BL21 Escherichia coli (pET-15b)
Nature of the experiment: Competitive fluorescence polarization assay, Gal-1. In kind it is binding. As to the method:
Our investigation of the structure–activity relationship of N-aryl-N-lactosylamides started with an initial screening of substituted acetanilides (Table ). These compounds can be readily synthesized from a wide range of commercially available substituted anilines. Affinity was evaluated using a fluorescence polarization assay, which enables reliable determination of dissociation constants (K d) between small molecules and galectins. All inhibitors in this series were tested against the two most common human galectins: Gal-1 and Gal-3. Gal-1 is a prototype galectin consisting of a single CRD and was used in full length. In the case of Gal-3, which consists of the C-terminal CRD and N-terminal unfolded region, only the C-terminal domain was used (Gal-3C). Affinities were compared to methyl β-lactoside (β-LacOMe) as a baseline.
Fluorescence polarization experiments for determining inhibitor affinities were performed using the same instrumentation and settings as described for the direct binding experiments. […] The galectin–probe mixture was subsequently added using a Certus Flex liquid handler (Fritz Gyger AG, Switzerland) to reach a final volume of 5 μL. Anisotropy was measured after 30–60 min incubation at 25 °C. Inhibitor dissociation constants (K d) were calculated using Wang’s exact cubic model for competitive binding implemented in the BindCurve package. Protein and probe concentrations used in these competitive experiments are provided in the Supporting Information.
Competitive binding was modeled by Wang’s exact cubic model,3 which is written as […]
r = rmin + (rmax − rmin) 3 (6) […]
where r, rmin and rmax have the same meaning as in Equation 1. The coefficients a, b, and c are […]
a = Kd∗ + Kd + [L∗]T + [L]T − [R]T (7) b = Kd∗([L]T − [R]T) + Kd([L∗]T − [R]T) + Kd∗ Kd (8) […]
where Kd∗ is the dissociation constant of the probe, Kd is the dissociation constant of the […]
the unlabeled ligand, and [R]T is the total concentration of the receptor. The angle θ is defined […]
In the competitive binding experiments, the values of [L∗]T, [R]T and Kd∗ are known and [L]T is titrated. The values of minimal and maximal anisotropy rmin and rmax were fixed during fitting at the values of the minimal and maximal asymptotes obtained from the direct binding experiments. The value of Kd was calculated as the only unfixed parameter in the model.
Experimental constants used for the competitive fluorescence polarization experiments are […]
Table S2. Experimental constants used for competitive fluorescence polarization experiments. […]

The chains behind the UniProt entries cited, without tags or fusion partners. Residues count along the entry.
UniProt P09382, 2-135: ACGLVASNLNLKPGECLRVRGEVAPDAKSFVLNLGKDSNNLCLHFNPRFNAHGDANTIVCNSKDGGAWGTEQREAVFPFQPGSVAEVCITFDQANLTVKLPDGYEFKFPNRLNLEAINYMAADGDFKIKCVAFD

Each structure is given as a SMILES string. Where two headings read alike, the source gives them in different places.

For the compound `OC[C@H]1O[C@@H](S[C@@H]2O[C@H](CO)[C@H](O)[C@H](O)[C@H]2O)[C@H](O)[C@@H](O)[C@H]1O` [TDG, thiodigalactoside, reference compound], the IC50 is, setting by setting: (CSV supplement, unrounded mean, read-out: Gal1_IC50_mean_uM) 125 µM; (four-parameter logistic model, mean ± SD, read-out: IC50 Gal-1) 130 ± 5 µM. The Kd came out at 88.2 µM (CSV supplement, unrounded mean, read-out: Gal1_Kd_mean_uM) and 88 ± 10 µM (competitive fluorescence polarization, mean ± SD, read-out: Kd Gal-1).
